Measured values as given in US10117864B2, “Substituted N-bicyclo-2-aryl-quinolin-4-carboxamides and use thereof” (BAYER PHARMA AKTIENGESELLSCHAFT, priority 2015, dated 2018).

Sequences of proteins named here, by UniProt entry; tags and fusion partners are left off. A change or cut given only in a name is not applied to a line headed by its entry.
UniProt P43088: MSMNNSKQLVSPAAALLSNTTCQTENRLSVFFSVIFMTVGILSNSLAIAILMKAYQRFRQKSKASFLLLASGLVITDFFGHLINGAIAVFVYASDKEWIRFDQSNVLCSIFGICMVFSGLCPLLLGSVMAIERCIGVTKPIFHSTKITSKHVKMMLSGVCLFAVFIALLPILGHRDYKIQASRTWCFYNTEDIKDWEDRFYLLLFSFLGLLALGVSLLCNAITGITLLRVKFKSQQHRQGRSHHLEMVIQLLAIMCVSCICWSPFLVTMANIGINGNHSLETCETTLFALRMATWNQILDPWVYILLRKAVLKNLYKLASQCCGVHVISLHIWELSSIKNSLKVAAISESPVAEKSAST

Target: human FP receptor (Homo sapiens (Human), UniProt P43088)
Test: In vitro test of inhibition of human FP receptor activity (PGF2α-induced calcium flux in FP-expressing CHEM1 cells)
Format: cell-based
Settings: PGF2α-induced (3 nM) calcium flux, some as mean values from multiple independent determinations
Source text: • CRTH2 chemoattractant receptor-homologous molecule expressed on T helper type 2 cells • DMEM Dulbecco's modified Eagle's medium • DMSO dimethyl sulfoxide • DP PGD2 receptor • EC50 half-maximum effective concentration • Em emission • EP PGE2 receptor • Ex excitation • from Company (source) • FCS fetal calf serum • FP PGF2α receptor • HEPES 2-[4-(2-hydroxyethyl)piperazin-1-yl]ethanesulfonic acid • IC50 half-maximum inhibitory concentration • IP PGI2 receptor • MES 2-(N-morpholino)ethanesulfonic acid • Pen/Strep penicillin/streptomycin • PGD2 prostaglandin D2 • PGE2 prostaglandin E2 • PGF2α prostaglandin F2α • PGI2 prostaglandin I2 • TC tissue culture • TP thromboxane A2 receptor • Tris tris(hydroxymethyl)aminomethane • v/v volume to volume ratio (of a solution) • w/w weight to weight ratio (of a solution) B-1. In Vitro Test of Inhibition of Human FP Receptor Activity
For the characterization of test substances in respect of FP antagonism, PGF2α-induced calcium flux in FP-expressing CHEM1 cells (Millipore, HTS093C) was used.
Prior to the measurement, the medium is replaced by 30 μl of Fluo-8 AM loading buffer [calcium-free Tyrode (130 mM NaCl, 5 mM KCl, 20 mM HEPES, 1 mM MgCl2, 4.8 mM NaHCO3, pH 7.4), 2 mM CaCl2, 1× SmartBlock (from CANDOR Bioscience GmbH), 4.5 mM Probenecid, 5 μM Fluo-8 AM, 0.016% Pluronic®, 0.04% Brilliant black] and incubated at 37° C./5% CO2 for 30 minutes. […] 10 μl of the prediluted substance solution are added to the Fluo-8-laden cells and incubated at 37° C./5% CO2 for 10 minutes. The FP receptor is activated by adding 20 μl of 3 nM (final concentration) PGF2α in calcium-free Tyrode/2 mM CaCl2/0.04% Brilliant black, and the calcium flux is determined by measuring the fluorescence at ex. 470 nm/[…].
Table 1 below lists the IC50 values from this assay for individual working examples of the invention (some as mean values from multiple independent individual determinations): […]

IC50 | SMILES
193 nM | Cc1c(-c2ccccc2)nc2ccc(Br)cc2c1C(=O)NC12CCC(C(=O)O)(CC1)C(F)C2 (single isomer, unassigned; enantiomer 2) [Example 62, (+)-4-{[(6-Bromo-3-methyl-2-phenylquinolin-4-yl)carbonyl]amino}-2-fluorobicyclo[2.2.2]octane-1-carboxylic acid (enantiomer 2)]
197 nM | Cc1c(-c2ccccc2)nc2ccc(Br)cc2c1C(=O)NC12CCC(C(=O)O)(CC1)C(F)C2 (racemic) [Example 60, 4-{[(6-Bromo-3-methyl-2-phenylquinolin-4-yl)carbonyl]amino}-2-fluorobicyclo [2.2.2]octane-1-carboxylic acid (racemate)]
83 nM | Cc1c(-c2ccccc2)nc2ccc(Br)cc2c1C(=O)NC12CCC(C(=O)O)(CC1)C(F)C2 (single isomer, unassigned; enantiomer 1) [Example 61, (−)-4-{[(6-Bromo-3-methyl-2-phenylquinolin-4-yl)carbonyl]amino}-2-fluorobicyclo[2.2.2]octane-1-carboxylic acid (enantiomer 1)]
